Experimental data published in ChEMBL document CHEMBL1135075, “Synthesis and biological evaluation of imidazol-2-one and 2-cyanoiminoimidazole derivatives: novel series of PDE4 inhibitors” (Bioorg Med Chem Lett, 2002).

By UniProt entry, the sequences of proteins in these tests, tags left out. Where a name states a change or a piece, a line headed by the entry shows the natural chain unless it says otherwise.
UniProt Q07343: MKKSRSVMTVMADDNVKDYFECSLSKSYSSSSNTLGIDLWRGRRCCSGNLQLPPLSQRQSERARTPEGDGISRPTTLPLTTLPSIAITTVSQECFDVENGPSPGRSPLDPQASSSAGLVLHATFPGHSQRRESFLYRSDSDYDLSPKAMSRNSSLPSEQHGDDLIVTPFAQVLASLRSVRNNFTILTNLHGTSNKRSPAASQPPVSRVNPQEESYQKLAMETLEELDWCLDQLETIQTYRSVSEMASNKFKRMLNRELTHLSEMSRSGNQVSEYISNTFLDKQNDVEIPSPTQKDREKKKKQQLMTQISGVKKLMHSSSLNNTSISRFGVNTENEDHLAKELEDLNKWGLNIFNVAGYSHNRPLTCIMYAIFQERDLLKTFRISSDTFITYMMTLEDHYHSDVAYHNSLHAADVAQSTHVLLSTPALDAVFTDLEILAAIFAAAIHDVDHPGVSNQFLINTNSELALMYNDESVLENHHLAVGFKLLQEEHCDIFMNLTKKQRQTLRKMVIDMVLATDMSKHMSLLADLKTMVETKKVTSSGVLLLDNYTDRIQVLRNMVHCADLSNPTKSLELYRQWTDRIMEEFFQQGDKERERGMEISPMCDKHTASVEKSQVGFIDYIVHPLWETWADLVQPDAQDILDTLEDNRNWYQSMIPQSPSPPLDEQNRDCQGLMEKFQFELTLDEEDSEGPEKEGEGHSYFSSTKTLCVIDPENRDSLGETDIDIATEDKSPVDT

Target: 3',5'-cyclic-AMP phosphodiesterase 4B (Homo sapiens, UniProt Q07343)
Experiment: Inhibitory activity against recombinant phosphodiesterase 4B (PDE4B) of human mononuclear lymphocytes

- IC50: 57 nM
SMILES: COc1ccc([C@H](C)Cn2ccnc2NC#N)cc1OC1Cc2ccccc2C1
